The subject of this data set is phosphorothioate oligonucleotide (ISIS-2302). Description: Desulfurization of phosphorothioate oligonucleotide in mono-phasic system with oil-soluble antioxidants (SAX chromatography). Type of data set: physicochemical. The note with it: 5 mg additive; 0.5 g PEG-40-monostearate, 1.5 ml phosphate buffer pH 7.0, 1.5 mg ISIS-2302; 65° C. 20 hours; no antioxidants 51.0. How it is done: Polyethyleneglycol-40-monostearate (0.5 g), a water-soluble excipient which forms peroxides in the absence of antioxidants, was heated at 65° C. for 20 hours with 1.5 ml phosphate buffer, pH 7.0 and 1.5 mg phosphorothioate oligonucleotide (ISIS-2302) in the absence or presence of various oil-soluble antioxidants. Oligonucleotides were isolated by ethanol precipitation and phosphorothioate content was determined by strong anion exchange (SAX) chromatography.

Turning to `Cc1ccc(C(C)(C)C)c(O)c1` [2-t-butyl-5-methylphenol], the “Full PS content (area-% SAX)” value turned out to be 89.4 area-% SAX.

The values are drawn from patent US20050208528A1, “Enhancement of the stability of oligonucleotides comprising phosphorothioate linkages by addition of water-soluble antioxidants” (ISIS Pharmaceuticals, Inc., priority 2001, published 2005).
